Measurements: ChEMBL document CHEMBL1134315 (J Med Chem, 2001)

The chains behind the UniProt entries cited, without tags or fusion partners.
UniProt P34972, whole entry: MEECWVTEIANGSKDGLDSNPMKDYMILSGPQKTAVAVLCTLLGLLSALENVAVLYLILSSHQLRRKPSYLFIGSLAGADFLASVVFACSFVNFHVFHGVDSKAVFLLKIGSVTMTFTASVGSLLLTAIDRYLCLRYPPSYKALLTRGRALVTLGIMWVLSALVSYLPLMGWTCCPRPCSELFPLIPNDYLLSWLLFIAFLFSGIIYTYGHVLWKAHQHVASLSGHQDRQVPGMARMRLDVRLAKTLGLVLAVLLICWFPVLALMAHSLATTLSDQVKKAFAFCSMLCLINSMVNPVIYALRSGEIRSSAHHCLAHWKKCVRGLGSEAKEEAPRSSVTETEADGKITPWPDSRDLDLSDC

Biological target: Cannabinoid receptor 2 (Homo sapiens, UniProt P34972)
Experiment: Binding affinity to human CB2 cannabinoid receptor using [3H]CP-55940 in HEK293 EBNA transfected cells
Format: cell-based

Structure (SMILES): CCCCC/C=C\C/C=C\C/C=C\C/C=C\CCCC(=O)NCCO [ANANDAMIDE]
- Ki: > 1000 nM
